PubChem BioAssay AID587 (National Center for Advancing Translational Sciences (NCATS), 2007)
The campaign covered roughly 59,000 compounds. About 35 (0.06%) were called active. Only results without a clear call are listed here; the source files them as inconclusive. No stated cut-off is given here; in the data, active means max dye-equivalent concentration above about 10 nM; inconclusive means between about 1.1 nM and that limit; inactive means weaker than that.

Test: qHTS Assay for Spectroscopic Profiling in Texas Red Spectral Region
Details: Compound fluorescence, Texas Red channel, 547/618 nm; stronger effect = higher value
Excerpt: NIH Molecular Libraries Screening Centers Network [MLSCN] NIH Chemical Genomics Center [NCGC] […] Occasionally, the artifactual effect may originate from the compound#s own spectral or other biophysical properties which generally tend to track its assay concentration. Pre-screening/profiling the library with respect to the compounds# spectral properties should help one exclude false positives early on. While the most informative fluorescent profiling data set is obtained by performing a full excitation and emission scan of each well by using a monochromator-based plate reader, such an approach is practical only on a very limited scale as scanning each well requires long time. An alternative approach, applied here, is to perform plate reader scans using selected excitation and emission wavelength pairs to generate a multidimensional relational database that correlates compound concentration and the respective relative fluorescence intensity at a given wavelength set. A standard curve of Texas Red (TR) present on each plate as six-point concentration series, was used to compute a normalized fluorescence response, termed dye-equivalent concentration, for each compound at each concentration.
NCGC Assay Protocol Summary: Buffer: 100 mM Tris buffer, pH 8.0 Dye standard plate: The wells in columns 1 through 4 of a Kalypsys polypropylene 1536-well compound plate were filled with standard solutions of fluorophore corresponding to the spectral region of interest. Solutions of TR were placed in the following wells: U1, V1: 3 mM, U2, V2: 300 uM, U3, V3: 30 uM, U4, V4: zero (DMSO), W1, X1: 3 uM, W2, X2: 900 nM, W3, X3: 300 nM, W4, X4: zero (DMSO). Assay Steps: Six uL of buffer were dispensed to 1536-well Greiner black plates. Compounds and dye standards (23 nL) were transferred via Kalypsys PinTool. The plates were incubated for 15 min at room temperature, and then read on ViewLux (Perkin-Elmer) High-throughput CCD imager using 547 nm and 618 nm excitation and emission filter set. Keywords: NIH Roadmap, MLSCN, MLI, MLSMR, qHTS, NCGC, Texas Red, Fluorescent Profiling.

**Q.** With `COP1(=S)c2c(C)nn(CCC#N)c2N=C(c2ccc(F)cc2)N1C` (stereo not given) as the compound, how does the max dye-equivalent concentration read?
**A.** The max dye-equivalent concentration was inconclusive: 1.4 nM.

**Q.** Which max dye-equivalent concentration does the source give for `O=C(O)[C@@H](O)c1ccc([As](=O)(O)O)cc1` here?
**A.** The max dye-equivalent concentration was inconclusive: 1.4 nM.

**Q.** Which max dye-equivalent concentration does the source give for `CN(C(=O)Cc1ccc(Cl)c(Cl)c1)[C@@H]1CC[C@@]2(CCCO2)C[C@H]1N1CCCC1` here?
**A.** Its max dye-equivalent concentration is inconclusive: 1.2 nM.

**Q.** With `CCOP1(=S)c2c(C)nn(CCC#N)c2N=C(c2ccccc2F)N1C` (stereo not given) as the compound, how does the max dye-equivalent concentration read?
**A.** The max dye-equivalent concentration was inconclusive: 1.4 nM.

**Q.** For `O=[As](O)(O)c1ccc([As](=O)(O)O)cc1`, which max dye-equivalent concentration is on record?
**A.** The max dye-equivalent concentration was inconclusive: 1.6 nM.

**Q.** Which max dye-equivalent concentration does the source give for `NC(=O)Nc1ccc([As](=O)(O)O)cc1` here?
**A.** Its max dye-equivalent concentration is inconclusive: 1.7 nM.

**Q.** Which max dye-equivalent concentration does the source give for `O=P1(Nc2ncccn2)COc2ccccc2OC1` here?
**A.** The max dye-equivalent concentration was inconclusive: 1.3 nM.

**Q.** Which max dye-equivalent concentration does the source give for `CN(C(=O)Cc1ccc(Cl)c(Cl)c1)[C@@H]1CCCC[C@H]1N1CCCC1` here?
**A.** Its max dye-equivalent concentration is inconclusive: 1.3 nM.

**Q.** With `O=C(OC1CN2CCC1CC2)c1cccc(Cl)c1` (stereo not given) as the compound, how does the max dye-equivalent concentration read?
**A.** The max dye-equivalent concentration was inconclusive: 1.1 nM.

**Q.** With `O=C(CO)Nc1ccc([As](=O)(O)O)cc1` as the compound, how does the max dye-equivalent concentration read?
**A.** The max dye-equivalent concentration was inconclusive: 1.6 nM.
